Experiments:
[1] = species on record: Homo sapiens; test: Selectivity ratio of Ki for human kappa opioid receptor to Ki for human mu opioid receptor
[2] = species on record: Homo sapiens; test: Selectivity ratio of Ki for human delta opioid receptor to Ki for human mu opioid receptor

`C[C@@H](NC(=O)[C@@H](N)Cc1ccc(O)cc1)C(=O)NCC(=O)N(C)[C@@H](Cc1ccccc1)C(=O)NCCO` gave a Ratio Ki [1] of 500 and a Ratio Ki [2] of 2000.
